Drawing on ChEMBL document CHEMBL4396872, “Pharmacokinetics-Driven Optimization of 4(3 H)-Pyrimidinones as Phosphodiesterase Type 5 Inhibitors Leading to TPN171, a Clinical Candidate for the Treatment of Pulmonary Arterial Hypertension” (J Med Chem, 2019), this text covers IC50 for one compound.

Sequences of proteins named here, by UniProt entry; tags and fusion partners are left off. A change or cut given only in a name is not applied to a line headed by its entry.
UniProt P27815: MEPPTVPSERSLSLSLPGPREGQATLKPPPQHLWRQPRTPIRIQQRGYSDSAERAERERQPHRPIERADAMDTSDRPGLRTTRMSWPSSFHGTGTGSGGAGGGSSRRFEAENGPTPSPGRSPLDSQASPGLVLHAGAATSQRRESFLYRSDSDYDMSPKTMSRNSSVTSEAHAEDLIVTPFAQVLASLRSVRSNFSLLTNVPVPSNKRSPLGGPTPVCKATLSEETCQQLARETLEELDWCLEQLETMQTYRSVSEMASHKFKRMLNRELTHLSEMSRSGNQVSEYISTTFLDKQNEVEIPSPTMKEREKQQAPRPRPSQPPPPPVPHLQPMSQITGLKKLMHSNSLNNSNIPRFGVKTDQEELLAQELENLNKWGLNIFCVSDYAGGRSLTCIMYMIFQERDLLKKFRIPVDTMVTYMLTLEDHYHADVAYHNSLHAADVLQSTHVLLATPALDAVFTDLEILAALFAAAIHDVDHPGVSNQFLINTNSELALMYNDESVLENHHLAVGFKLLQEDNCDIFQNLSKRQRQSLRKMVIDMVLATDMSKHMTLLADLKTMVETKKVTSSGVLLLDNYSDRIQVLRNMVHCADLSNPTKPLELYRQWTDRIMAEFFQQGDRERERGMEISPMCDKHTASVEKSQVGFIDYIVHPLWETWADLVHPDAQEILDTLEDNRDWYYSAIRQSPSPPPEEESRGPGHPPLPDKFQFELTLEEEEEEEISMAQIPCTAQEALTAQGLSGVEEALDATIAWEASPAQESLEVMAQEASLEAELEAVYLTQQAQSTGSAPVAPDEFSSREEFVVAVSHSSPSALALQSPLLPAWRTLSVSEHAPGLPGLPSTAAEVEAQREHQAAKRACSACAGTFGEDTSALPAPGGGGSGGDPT
UniProt Q08499: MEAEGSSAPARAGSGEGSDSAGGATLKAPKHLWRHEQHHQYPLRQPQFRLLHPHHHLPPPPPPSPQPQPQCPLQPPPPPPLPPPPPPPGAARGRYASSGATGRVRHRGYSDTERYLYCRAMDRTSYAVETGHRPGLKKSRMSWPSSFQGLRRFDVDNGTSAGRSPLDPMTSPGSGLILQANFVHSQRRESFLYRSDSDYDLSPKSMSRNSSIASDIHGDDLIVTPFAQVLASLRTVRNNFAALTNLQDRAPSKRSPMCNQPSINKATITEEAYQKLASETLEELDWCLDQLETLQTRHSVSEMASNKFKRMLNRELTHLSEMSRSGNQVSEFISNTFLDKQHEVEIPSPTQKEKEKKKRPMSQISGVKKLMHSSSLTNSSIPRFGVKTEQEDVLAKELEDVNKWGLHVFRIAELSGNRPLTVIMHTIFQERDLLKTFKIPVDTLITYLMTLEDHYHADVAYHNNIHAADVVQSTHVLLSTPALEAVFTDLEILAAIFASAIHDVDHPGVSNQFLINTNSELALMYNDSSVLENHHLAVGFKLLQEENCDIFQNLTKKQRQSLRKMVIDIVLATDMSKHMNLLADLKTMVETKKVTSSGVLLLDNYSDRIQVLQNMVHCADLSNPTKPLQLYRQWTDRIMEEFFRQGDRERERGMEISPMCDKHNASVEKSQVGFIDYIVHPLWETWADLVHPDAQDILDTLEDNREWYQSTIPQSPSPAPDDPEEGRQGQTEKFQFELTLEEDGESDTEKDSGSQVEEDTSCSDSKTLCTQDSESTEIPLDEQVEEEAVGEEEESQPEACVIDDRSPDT
UniProt Q07343: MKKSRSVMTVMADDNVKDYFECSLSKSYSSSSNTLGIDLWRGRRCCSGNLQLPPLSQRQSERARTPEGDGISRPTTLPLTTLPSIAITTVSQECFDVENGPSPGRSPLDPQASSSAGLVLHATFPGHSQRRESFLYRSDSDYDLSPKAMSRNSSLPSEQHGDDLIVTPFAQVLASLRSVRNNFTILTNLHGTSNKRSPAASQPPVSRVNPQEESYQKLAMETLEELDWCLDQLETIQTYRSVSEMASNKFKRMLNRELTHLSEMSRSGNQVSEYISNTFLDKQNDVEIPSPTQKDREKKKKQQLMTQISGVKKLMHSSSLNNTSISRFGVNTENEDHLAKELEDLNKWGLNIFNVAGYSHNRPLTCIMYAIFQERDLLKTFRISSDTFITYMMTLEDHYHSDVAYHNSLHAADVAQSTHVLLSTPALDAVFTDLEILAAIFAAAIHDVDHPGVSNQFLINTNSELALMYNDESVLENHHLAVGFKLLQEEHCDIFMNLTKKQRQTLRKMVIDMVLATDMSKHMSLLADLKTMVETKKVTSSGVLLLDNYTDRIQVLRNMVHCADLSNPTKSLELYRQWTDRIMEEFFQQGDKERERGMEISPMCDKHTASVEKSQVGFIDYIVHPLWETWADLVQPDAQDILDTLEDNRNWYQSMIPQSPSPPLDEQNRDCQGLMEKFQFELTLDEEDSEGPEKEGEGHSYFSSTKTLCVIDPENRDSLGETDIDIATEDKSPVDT
UniProt Q08493: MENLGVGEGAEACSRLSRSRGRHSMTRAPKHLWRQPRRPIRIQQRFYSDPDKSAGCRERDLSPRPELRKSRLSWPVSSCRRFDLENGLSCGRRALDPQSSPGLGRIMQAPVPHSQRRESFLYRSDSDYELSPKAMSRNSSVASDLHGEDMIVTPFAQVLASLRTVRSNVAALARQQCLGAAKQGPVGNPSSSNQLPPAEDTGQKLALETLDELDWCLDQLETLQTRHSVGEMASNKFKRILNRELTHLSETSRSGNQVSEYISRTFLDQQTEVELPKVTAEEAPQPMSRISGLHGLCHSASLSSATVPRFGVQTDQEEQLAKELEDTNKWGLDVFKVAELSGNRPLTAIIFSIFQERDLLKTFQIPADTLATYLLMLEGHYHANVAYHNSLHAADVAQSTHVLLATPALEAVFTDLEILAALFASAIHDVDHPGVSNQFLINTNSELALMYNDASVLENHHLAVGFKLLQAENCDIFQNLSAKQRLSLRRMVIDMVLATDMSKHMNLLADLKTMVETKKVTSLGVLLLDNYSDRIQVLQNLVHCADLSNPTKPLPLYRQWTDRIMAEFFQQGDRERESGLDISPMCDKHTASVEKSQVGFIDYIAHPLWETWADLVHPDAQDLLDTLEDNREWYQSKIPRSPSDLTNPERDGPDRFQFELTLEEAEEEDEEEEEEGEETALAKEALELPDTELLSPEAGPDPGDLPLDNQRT

Bounds are passed on as bounds.

This test concerns the target Phosphodiesterase 4 (Homo sapiens, UniProt P27815+Q08499+Q07343+Q08493). Description: Inhibition of N-terminal GST-tagged human PDE4 expressed in baculovirus infected sf9 cells using [3H]cAMP as substrate measured after 30 mins by scintillation proximity assay. The class given is ADME.

With `CN1CC(=O)N2[C@H](c3ccc4c(c3)OCO4)c3[nH]c4ccccc4c3C[C@@H]2C1=O`, the IC50 is above 10 µM.

For orientation: IC50 means the concentration at which inhibition is half-maximal.
